Reference: patent US8546419B2, “Dual phase drug release system” (priority 2003, dated 2013)

Tests used:
[1] = Hydrolytic stability and CPT release in aqueous media / phosphate buffered saline (RP HPLC); format: physicochemical; details: PBS at pH 7.47/37° C.; first phase release
Protocol: The second stage hydrolysis of CPT-SI was investigated analogously.
Using procedures analogous to the described above, CPT release from these conjugates was investigated in phosphate buffered saline as described above. The conjugates were also tested for cytotoxicity in HT29 cell culture.

[2] = Protocol: The resultant suspension was diluted to 150 ml and extracted with methylene chloride (3×150 ml). Methylene chloride layers were combined, washed with 0.01 N HCl, and dried over magnesium sulfate. Solvent was removed in vacuum.
[3] = buffer, pH 7.4
Protocol: PHF-SAG-Taxol conjugate synthesis was carried out on a 2-gram scale, at ambient temperature, pH 5.5-6.0. […] The PHF-SAG-Taxol was purified of low molecular weight impurities by gel filtration on G25 Sefadex column equilibrated with DI water, and recovered by lyophilyzation. […] Stability of PHF-Taxol conjugates in aqueous media was monitored by HPLC.

Substance	CPT half-release time [1]	solubility (in words) [2]	half-life of ester hydrolysis to Taxol [3]
Methylsuccinic Acid-Linked PHF-CPT [PHF-MSA-CPT]	1.4 h		
(2-Nonen-1-yl)-succinic Acid-Linked PHF-CPT [PHF-NSA-CPT]	16.0 h	soluble in water and polar organic solvents	
Taxol-2′(O)-(succinimidoglycine)			approximately 3 hours
